Experimental findings from patent US8658687B2, “Injectable formulations containing asenapine and method of treatment using same” (Merck Sharp & Dohme Corp., priority 2009, dated 2014) are described below.

The series is described as follows: Solubility in aqueous phosphate buffer at pH 7.

As to `CN1C[C@@H]2c3ccccc3Oc3ccc(Cl)cc3[C@H]2C1.CN1C[C@@H]2c3ccccc3Oc3ccc(Cl)cc3[C@H]2C1.O=C(O)c1cc2ccccc2c(Cc2c(O)c(C(=O)O)cc3ccccc23)c1O` [crystalline Form I of asenapine hemipamoate], the “solubility in an aqueous phosphate buffer at pH 7” value is listed as “about 12.6 micrograms/mL”. For the molecule `CN1C[C@@H]2c3ccccc3Oc3ccc(Cl)cc3[C@H]2C1.CN1C[C@@H]2c3ccccc3Oc3ccc(Cl)cc3[C@H]2C1.O=C(O)c1cc2ccccc2c(Cc2c(O)c(C(=O)O)cc3ccccc23)c1O` [crystalline Form II of asenapine hemipamoate], the “solubility in an aqueous phosphate buffer at pH 7” value was “about 3 micrograms/mL”.
